The numbers were not newly measured in article PMC11449996 (Clinical Pharmacokinetics, 2024), which cites them from elsewhere.

The test system of the data set is Staphylococcus aureus isolates. As to conditions: neutropenic murine thigh infection model; cited from earlier work.

Molecules are shown by their SMILES.

Take `CN[C@H]1C(=O)N[C@@H]2Cc3ccc(cc3)Oc3cc4cc(c3O[C@@H]3O[C@H](C(=O)O)[C@@H](O)[C@H](O)[C@H]3NC(=O)CCCCCCCCC(C)C)Oc3ccc(cc3Cl)[C@@H](O)[C@@H]3NC(=O)[C@H](NC(=O)[C@@H]4NC(=O)[C@@H](NC2=O)c2cc(cc(O)c2Cl)Oc2cc1ccc2O)c1ccc(O)c(c1)-c1c(O[C@H]2O[C@H](CO)[C@@H](O)[C@H](O)[C@@H]2O)cc(O)cc1[C@@H](C(=O)NCCCN(C)C)NC3=O` [dalbavancin, Dalbavancin]: the “fAUC24/MIC ratio associated with a 2-log kill” value is reported as over 111.1.
